Values quoted from earlier work, collected in US10736889B2, “Method of treating dyskinesia” (Rutgers, The State University of New Jersey, priority 2011, dated 2020).

By UniProt entry, the sequences of proteins in these tests, tags left out.
UniProt P35372, whole entry: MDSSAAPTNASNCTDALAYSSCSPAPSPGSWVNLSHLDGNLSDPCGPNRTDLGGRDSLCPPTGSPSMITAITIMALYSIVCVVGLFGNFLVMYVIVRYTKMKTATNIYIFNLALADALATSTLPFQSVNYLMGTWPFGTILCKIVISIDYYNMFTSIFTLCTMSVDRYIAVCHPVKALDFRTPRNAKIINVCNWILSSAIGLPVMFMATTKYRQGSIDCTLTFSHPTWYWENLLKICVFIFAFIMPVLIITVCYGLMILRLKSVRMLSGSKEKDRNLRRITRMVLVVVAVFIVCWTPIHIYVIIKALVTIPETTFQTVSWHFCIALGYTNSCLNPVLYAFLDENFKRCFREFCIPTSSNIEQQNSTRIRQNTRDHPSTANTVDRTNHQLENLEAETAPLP

Biological target: μ-opioid receptors (Homo sapiens, UniProt P35372)
Conditions: read-out: Ki for μ-opioid receptors

Compound: CCC12CCN(CC3(O)CC3)C(Cc3ccc(O)cc31)C2(C)C (stereo not shown) [Bremazocine]
- Ki: ~1.6 nM
